Among the data in ChEMBL document CHEMBL3826971 (Bioorg Med Chem Lett, 2016) are Ratio Ki and Ratio IC50 values, retold here.

The chains behind the UniProt entries cited, without tags or fusion partners. Where a name states a change or a piece, a line headed by the entry shows the natural chain unless it says otherwise.
UniProt P06276, whole entry, looked up: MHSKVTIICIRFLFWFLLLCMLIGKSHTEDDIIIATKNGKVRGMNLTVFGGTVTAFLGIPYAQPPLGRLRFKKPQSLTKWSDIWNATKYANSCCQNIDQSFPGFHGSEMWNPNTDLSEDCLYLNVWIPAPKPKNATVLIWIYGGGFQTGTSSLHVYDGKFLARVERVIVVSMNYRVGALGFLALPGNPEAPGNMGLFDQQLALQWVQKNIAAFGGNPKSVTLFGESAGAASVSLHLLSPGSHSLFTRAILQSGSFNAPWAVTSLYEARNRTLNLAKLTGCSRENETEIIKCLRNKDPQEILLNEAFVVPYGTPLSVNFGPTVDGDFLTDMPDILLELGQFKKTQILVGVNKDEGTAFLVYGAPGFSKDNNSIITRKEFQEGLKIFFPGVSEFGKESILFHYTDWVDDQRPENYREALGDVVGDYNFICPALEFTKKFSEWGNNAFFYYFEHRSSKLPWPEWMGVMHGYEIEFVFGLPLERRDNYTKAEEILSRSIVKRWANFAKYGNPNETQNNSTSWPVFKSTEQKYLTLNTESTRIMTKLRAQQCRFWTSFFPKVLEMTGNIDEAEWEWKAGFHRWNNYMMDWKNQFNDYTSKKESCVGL
UniProt P22303: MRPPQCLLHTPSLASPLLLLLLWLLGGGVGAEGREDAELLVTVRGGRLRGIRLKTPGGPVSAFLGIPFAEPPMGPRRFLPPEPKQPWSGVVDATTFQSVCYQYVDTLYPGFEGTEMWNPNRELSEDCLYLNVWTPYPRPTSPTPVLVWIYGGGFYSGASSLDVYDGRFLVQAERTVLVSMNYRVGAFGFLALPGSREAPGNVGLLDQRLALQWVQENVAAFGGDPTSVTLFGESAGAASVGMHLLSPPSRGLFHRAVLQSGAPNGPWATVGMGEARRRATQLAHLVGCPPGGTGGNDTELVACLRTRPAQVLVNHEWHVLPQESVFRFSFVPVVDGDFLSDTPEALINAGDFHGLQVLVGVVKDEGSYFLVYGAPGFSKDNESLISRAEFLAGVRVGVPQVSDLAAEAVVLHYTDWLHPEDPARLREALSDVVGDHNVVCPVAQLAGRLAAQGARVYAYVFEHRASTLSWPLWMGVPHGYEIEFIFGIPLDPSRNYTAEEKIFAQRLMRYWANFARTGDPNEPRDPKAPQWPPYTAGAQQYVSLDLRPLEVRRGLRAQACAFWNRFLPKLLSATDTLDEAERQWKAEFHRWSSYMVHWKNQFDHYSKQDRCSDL

Each structure is given as a SMILES string.

Test [1] is described as follows: Selectivity ratio, ratio of Ki for horse serum BChE to Ki for fetal bovine serum AChE.
Test [2] concerns the target Cholinesterases; ACHE & BCHE (Homo sapiens) (UniProt P06276+P22303). As to the kind of experiment: Selectivity ratio, ratio of IC50 for human plasma BChE to IC50 for human AChE.

With `CN(C)C(=O)Oc1ccc[n+](C)c1.[Br-]` [PYRIDOSTIGMINE BROMIDE], the Ratio Ki in test [1] amounted to 6. The Ratio IC50 in test [2] came to 2.9.
